These results are taken from patent US20260209301A1, “Galanin-2 Receptor Agonists” (LIFEARC, priority 2022, published 2026).

The chains behind the UniProt entries cited, without tags or fusion partners. Where a name states a change or a piece, a line headed by the entry shows the natural chain unless it says otherwise.
UniProt P47211: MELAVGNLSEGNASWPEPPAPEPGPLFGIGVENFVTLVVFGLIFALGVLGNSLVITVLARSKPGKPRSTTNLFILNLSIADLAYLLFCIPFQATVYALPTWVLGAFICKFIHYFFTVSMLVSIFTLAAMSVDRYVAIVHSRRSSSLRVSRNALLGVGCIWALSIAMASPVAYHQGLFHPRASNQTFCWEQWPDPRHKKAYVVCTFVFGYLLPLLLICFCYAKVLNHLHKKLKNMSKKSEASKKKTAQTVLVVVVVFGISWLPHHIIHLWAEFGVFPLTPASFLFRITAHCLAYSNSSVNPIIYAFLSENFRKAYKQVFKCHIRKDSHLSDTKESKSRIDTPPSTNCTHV

What all share (assay type): cell-based
For assay [1], the target named is T1, GALR1 (Homo sapiens, UniProt P47211). Briefly: cAMP HTRF assay, CHO GalR1 cells. Details: expressed in transfected cells; host or cells: CHO (Flp-In, pcDNA5/FRT). The conditions noted are these: for GalR1 activity (cAMP assay), warhead length: Table 6; for GalR1 cAMP pEC50: Table 3, n ≥ 3, highest concentration 1 μM (galnon 100 μM); for GalR1 cAMP IA (%): maximum response at highest concentration tested (1 μM, except galnon at 100 μM), relative to galanin. A general note: In TR-FRET formats the signal depends on donor and acceptor labels being close together.

Assay [2] concerns the target T1, GALR1. The assay is described as follows: Luciferase reporter gene assay (SRE), HEK293 Gqi cells. Details: expressed in transfected cells; host or cells: genetically modified HEK293 Gqi cells, transient. Conditions: Table 5, quantity not named, n ≥ 3. (In general: A reporter such as luciferase makes a cellular process visible.)
The next assay concerns human GalR1. Briefly: cAMP HTRF assay, CHO GalR1 cells. The conditions noted are these: functional assays GalR2 vs GalR1, Tables 2 and 3.
Assay [3] addresses T1, GALR1. Briefly: β-arrestin recruitment, PathHunter CHO-K1 GALR1 cells. Conditions: for GalR1 Beta Arrestin pEC50: Table 3, mean +/− standard deviation, n ≥ 3, highest concentration 1 μM (galnon 100 μM); for GalR1 Beta Arrestin IA (%): maximum response at highest concentration tested (1 μM, except galnon at 100 μM), relative to galanin. In general terms: Activated receptors often draw arrestin, which recruitment assays turn into a signal.

The mark [4] stands for this setting: mean +/− standard deviation, highest concentration tested 10 μM.

With “Gal2-12FC: galanin 2-12, AEAAAKEAAAKA linker, human IgG1 FC; SEQ ID NO: 25”, in the assay with GALR1 [1] (setting [4]), the “GalR1 activity (cAMP assay), warhead length” value is 5.4 +/− 0.1. In the assay with GALR1 [2], the EC50 (in general, the concentration needed to bring the measured effect to its halfway point) was > 1000 nM.
With “Gal2-13FC: galanin 2-13, AEAAAKEAAAKA linker, human IgG1 FC; SEQ ID NO: 7”, in the assay with human GalR1, the “selectivity GalR2 compared to GalR1 (in words)” value (“selectivity GalR2” below) is reported as “GalR2-specific”. Besides, in the assay with GALR1 [3], the “GalR1 Beta Arrestin pEC50” value is recorded as “N/A (N/A denotes activity failed to reach 50% of that of galanin.)” and the “GalR1 Beta Arrestin IA (%)” value is reported as 0.8 +/− 1.9%. In addition, in the assay with GALR1 [1] (mean +/− standard deviation), the “GalR1 cAMP pEC50” value was “N/A (N/A denotes activity failed to reach 50% of that of galanin.)”. Further, the “GalR1 activity (cAMP assay), warhead length” value with GALR1 [1] (setting [4]) is recorded as 5.3 +/− 0.2. In the assay with GALR1 [1] (Table 7, mean +/− standard deviation, highest concentration tested 10 μM), the “GalR1 activity (cAMP assay), linker variants” value is 5.1 +/− 0.2. In addition, the “GalR1 cAMP IA (%)” value with GALR1 [1] is recorded as 7.5 +/− 15.3%. Moreover, in the assay with GALR1 [2], the EC50 was > 1000 nM.
As to “Gal2-18FC: galanin 2-18, AEAAAKEAAAKA linker, human IgG1 FC; SEQ ID NO: 26”, the “selectivity GalR2” value in the assay on human GalR1 was “GalR2-preferring”. Further, in the assay with GALR1 [3], the “GalR1 Beta Arrestin pEC50” value was “N/A (N/A denotes activity failed to reach 50% of that of galanin.)” and the “GalR1 Beta Arrestin IA (%)” value is 27.3 +/− 5.2%. In the assay with GALR1 [1] (mean +/− standard deviation), the “GalR1 cAMP pEC50” value is recorded as 6.3 +/− 0.3. Besides, the “GalR1 activity (cAMP assay), warhead length” value in the assay with GALR1 [1] (setting [4]) is 6.3 +/− 0.3. Moreover, the “GalR1 cAMP IA (%)” value in the assay with GALR1 [1] was 59.8 +/− 15.7%.
For the substance “Gal2-24FC: galanin 2-24, AEAAAKEAAAKA linker, human IgG1 FC; SEQ ID NO: 27”, the “selectivity GalR2” value in the assay with human GalR1 is listed as “GalR2-preferring”. In the assay with GALR1 [3], the “GalR1 Beta Arrestin pEC50” value is listed as “N/A (N/A denotes activity failed to reach 50% of that of galanin.)” and the “GalR1 Beta Arrestin IA (%)” value is on record as 44.9 +/− 8.4%. Besides, the “GalR1 cAMP pEC50” value with GALR1 [1] (mean +/− standard deviation) is 6.5 +/− 0.3. Besides, the “GalR1 activity (cAMP assay), warhead length” value in the assay with GALR1 [1] (setting [4]) was 6.5 +/− 0.3. In addition, the “GalR1 cAMP IA (%)” value in the assay with GALR1 [1] is 65.8 +/− 10.7%.
As to “Gal2-30FC: galanin 2-30, AEAAAKEAAAKA linker, human IgG1 FC; SEQ ID NO: 28”, the “selectivity GalR2” value with human GalR1 is reported as “GalR2-preferring”. In the assay with GALR1 [3], the “GalR1 Beta Arrestin pEC50” value is listed as “N/A (N/A denotes activity failed to reach 50% of that of galanin.)” and the “GalR1 Beta Arrestin IA (%)” value is reported as 42.8 +/− 8.5%. Further, in the assay with GALR1 [1] (mean +/− standard deviation), the “GalR1 cAMP pEC50” value is reported as 7.0 +/− 0.4. In addition, the “GalR1 activity (cAMP assay), warhead length” value with GALR1 [1] (setting [4]) is on record as 7.0 +/− 0.4. For the same substance, the “GalR1 cAMP IA (%)” value with GALR1 [1] was 80.2 +/− 14.8%. Also, the EC50 with GALR1 [2] was > 1000 nM.
